# In PMC7026418, “The kinase polypharmacology landscape of clinical PARP inhibitors” (Scientific Reports, 2020):
# By UniProt entry, the sequences of proteins in these tests, tags left out.
# UniProt Q9Y463, whole entry: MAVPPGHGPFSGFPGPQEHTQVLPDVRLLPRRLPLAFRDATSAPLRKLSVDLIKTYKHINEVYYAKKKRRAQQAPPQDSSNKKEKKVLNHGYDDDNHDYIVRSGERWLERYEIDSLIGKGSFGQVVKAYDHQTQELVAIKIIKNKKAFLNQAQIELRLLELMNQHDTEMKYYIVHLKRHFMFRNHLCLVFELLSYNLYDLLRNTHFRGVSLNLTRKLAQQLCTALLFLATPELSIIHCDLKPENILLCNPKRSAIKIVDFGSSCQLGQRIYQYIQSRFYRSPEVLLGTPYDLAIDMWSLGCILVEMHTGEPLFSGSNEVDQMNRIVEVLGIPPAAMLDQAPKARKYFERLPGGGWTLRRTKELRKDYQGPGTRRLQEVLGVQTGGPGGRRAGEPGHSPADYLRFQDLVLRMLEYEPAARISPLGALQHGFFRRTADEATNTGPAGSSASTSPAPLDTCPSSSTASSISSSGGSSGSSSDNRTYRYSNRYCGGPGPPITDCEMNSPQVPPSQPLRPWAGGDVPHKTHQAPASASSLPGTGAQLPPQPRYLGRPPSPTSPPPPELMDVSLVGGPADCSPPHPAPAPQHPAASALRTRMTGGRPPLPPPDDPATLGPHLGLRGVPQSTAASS
# Like-named read-outs stand apart in the source and are kept apart here.
# What was measured:
# Experiment in all cases: biochemical
# DYRK1A [1] = target: T1, DYRK1A (Homo sapiens, UniProt Q13627); details: read-out: Rucaparib
# DYRK1B = DYRK1B (Homo sapiens, UniProt Q9Y463); details: read-out: Rucaparib
# DYRK1A [2] = target: T1, DYRK1A; details: read-out: Niraparib
Compound,inhibition at 1 µM (DYRK1A [1]),inhibition at 1 µM (DYRK1B),inhibition at 1 µM (DYRK1A [2])
CNCc1ccc(-c2[nH]c3cc(F)cc4c3c2CCNC4=O)cc1 [Rucaparib],49%,53%,–
NC(=O)c1cccc2cn(-c3ccc([C@@H]4CCCNC4)cc3)nc12 [Niraparib],–,–,76%
